According to patent publication US20260384422A1, “CRYSTALLINE FORMS OF A BIARYL YAP/TAZ-TEAD PROTEIN-PROTEIN INTERACTION INHIBITOR” (published 2026):
One block for each molecule: values may come before it.

Experiments:
[1] = Stability Study (degradation products, color, XRPD after stress); details: for Color (remark on solid in words): pH 9.0 borate buffer 50 mM
[2] = Glass transition by DSC after heating and cooling
[3] = Loss on drying by TGA; details: for Loss on drying / Loss on drying after 1 day at 92% RH: heating rate 10 K/min
[4] = DVS isotherm / humidity exposure (hygroscopicity, XRPD after humidity); details: for DVS mass change, desorption / DVS mass change, sorption: 25 °C; for XRPD after DVS: after DVS at 25 °C, 2 cycles 40-0-95-0-40% RH
[5] = Comparison of the properties of IAG933 succinate salt and free form Modification A; details: statement in words
[6] = Crystal morphology (SEM); details: SEM image, FIG. 2
[7] = 0.1% solution or suspension, 1 week 80 °C, pH 3.0 citrate buffer 50 mM (pH 3.10 free form; pH 3.56 salt)
[8] = 0.1% solution or suspension, 1 week 80 °C, pH 4.7 acetate buffer 50 mM (pH 4.83 free form; pH 4.93 salt)
[9] = 0.1% solution or suspension, 1 week 80 °C, pH 6.8 phosphate buffer 50 mM (pH 6.88 free form; pH 6.46 salt)
[10] = 0.1% solution or suspension, 1 week 80 °C
[11] = 0.1% solution or suspension, 1 week 80 °C, pH 9.0 borate buffer 50 mM (pH 8.99 free form; 7.51 salt)
[12] = 0.1% solution or suspension, 1 week 80 °C, water (final pH 8.99 free form; 5.10 salt)
[13] = Xenon light (1200 kLuxh), bulk amber vial (HPLC)
[14] = Xenon light (1200 kLuxh), bulk clear vial (HPLC)
[15] = second Bulk (HPLC) line under heading solid state, 2 week 50 °C / 11% RH, open (own condition not given)
[16] = second Bulk (XRPD) line under heading solid state, 2 week 50 °C / 11% RH, open (own condition not given)
[17] = solid state, 2 week 80 °C / 11% RH, open
[18] = solid state, 2 week 80 °C / 11% RH, open, bulk (HPLC)
[19] = solid state, 2 week 80 °C / 75% RH, open
[20] = solid state, 2 week 80 °C / 75% RH, open, bulk (HPLC)

- Degradation Products ([1]; 0.1% solution or suspension, 1 week 70 °C, acetonitrile): 0.8%
- Degradation Products ([1]; 0.1% solution or suspension, 1 week 70 °C, ethanol): 1.7%
- Degradation Products [1, 7]: 1.4%
- Degradation Products [1, 8]: 1.0%
- Degradation Products [1, 9]: 1.9%
- Color (remark on solid in words) [1, 10]: (solid on the wall)
- Degradation Products [1, 11]: 5.7%
- Degradation Products [1, 12]: 4.6%
- Bulk amber vial (XRPD) ([1]; Xenon light (1200 kLuxh)): No change
- Bulk clear vial (XRPD) ([1]; Xenon light (1200 kLuxh)): No change
- Degradation Products [1, 13]: 1.0%
- Degradation Products [1, 14]: 4.1%
- Degradation Products ([1]; initial): 0.7%
- Degradation Products [1, 15]: 1.3%
- Bulk (XRPD) [1, 16]: No change
- Bulk (XRPD) [1, 17]: No change
- Degradation Products [1, 18]: 1.4%
- Bulk (XRPD) [1, 19]: Gel
- Color (appearance in words) [1, 19]: gel
- Degradation Products [1, 20]: 12.6%
- Tg (glass transition) [2]: 95.6 °C
- Loss on drying ([3]; at 110 °C): 0.4%
- Loss on drying after 1 day at 92% RH ([3]; at 110 °C): 1.0%
- Loss of drying (LoD) ([3]; heating rate 10 °C/min, calculated between 27 °C and 110 °C): 0.38%
- DVS mass change, desorption ([4]; 0% RH): −0.01%
- DVS mass change, sorption ([4]; 0% RH): 0.00%
- DVS mass change, desorption ([4]; 10% RH): 0.16%
- DVS mass change, sorption ([4]; 10% RH): 0.11%
- DVS mass change, desorption ([4]; 20% RH): 0.28%
- DVS mass change, sorption ([4]; 20% RH): 0.19%
- DVS mass change, desorption ([4]; 30% RH): 0.38%
- DVS mass change, sorption ([4]; 30% RH): 0.26%
- DVS mass change, desorption ([4]; 40% RH): 0.48%
- DVS mass change, sorption ([4]; 40% RH): 0.33%
- DVS mass change, desorption ([4]; 50% RH): 0.62%
- DVS mass change, sorption ([4]; 50% RH): 0.41%
- DVS mass change, desorption ([4]; 60% RH): 0.72%
- DVS mass change, sorption ([4]; 60% RH): 0.51%
- DVS mass change, desorption ([4]; 70% RH): 0.81%
- DVS mass change, sorption ([4]; 70% RH): 0.62%
- DVS mass change, desorption ([4]; 80% RH): 0.90%
- DVS mass change, sorption ([4]; 80% RH): 0.75%
- DVS mass change, desorption ([4]; 90% RH): 1.00%
- DVS mass change, sorption ([4]; 90% RH): 0.92%
- DVS mass change, desorption ([4]; 95% RH): 1.04%
- DVS mass change, sorption ([4]; 95% RH): 1.05%
- XRPD after 1 day at 92% RH: crystallinity or form [4]: No change
- XRPD after DVS [4]: No change
Compound: CNC(=O)c1cnc(OCCO)c(F)c1-c1c(Cl)c(F)cc2c1C[C@](c1ccccc1)([C@@H]1CCCN1)O2

- Degradation Products ([1]; 0.1% solution or suspension, 1 week 50 °C, MeOH): 0.28%
- Degradation Products ([1]; 0.1% solution or suspension, 1 week 50 °C, acetone): 3.97%
- Degradation Products ([1]; 0.1% solution or suspension, 1 week 50 °C, acetonitrile): 1.95%
- Degradation Products ([1]; 0.1% solution or suspension, 1 week 50 °C, ethanol): 0.69%
- Degradation Products [1, 7]: 0.84%
- Degradation Products [1, 8]: 0.31%
- Degradation Products [1, 9]: 0.37%
- Color (remark on solid in words) [1, 10]: (amorphous)
- Degradation Products [1, 11]: 2.35%
- Degradation Products [1, 12]: 0.37%
- Bulk amber vial (XRPD) ([1]; Xenon light (1200 kLuxh)): No change
- Bulk clear vial (XRPD) ([1]; Xenon light (1200 kLuxh)): No change
- Degradation Products [1, 13]: 0.14%
- Degradation Products [1, 14]: 3.09%
- Degradation Products ([1]; initial): 0.28%
- Degradation Products [1, 15]: 0.18%
- Bulk (XRPD) [1, 16]: No change
- Bulk (XRPD) ([1]; solid state, 2 week 50 °C / 11% RH, open): No change
- Degradation Products ([1]; solid state, 2 week 50 °C / 11% RH, open, bulk (HPLC)): 0.22%
- Bulk (XRPD) [1, 17]: No change
- Degradation Products [1, 18]: 1.22%
- Bulk (XRPD) [1, 19]: No change
- Degradation Products [1, 20]: 1.34%
- Tg (glass transition) [2]: 96 °C
- Δcp (glass transition) [2]: (0.4 J/g/K)
- Loss on drying ([3]; at 150 °C): 0.4%
- Loss on drying after 1 day at 92% RH ([3]; at 150 °C): 0.3%
- Loss on drying ([3]; at 150 °C, listed as 1:1 succinate salt of IAG933): 0.4%
- morphology [6]: blocky
- DVS mass change, desorption ([4]; 0% RH): 0.0024%
- DVS mass change, sorption ([4]; 0% RH): 0.0007%
- DVS mass change, desorption ([4]; 10% RH): 0.0389%
- DVS mass change, sorption ([4]; 10% RH): 0.0321%
- DVS mass change, desorption ([4]; 20% RH): 0.0847%
- DVS mass change, sorption ([4]; 20% RH): 0.0624%
- DVS mass change, desorption ([4]; 30% RH): 0.1241%
- DVS mass change, sorption ([4]; 30% RH): 0.0920%
- DVS mass change, desorption ([4]; 40% RH): 0.1611%
- DVS mass change, sorption ([4]; 40% RH): 0.1212%
- DVS mass change, desorption ([4]; 50% RH): 0.2081%
- DVS mass change, sorption ([4]; 50% RH): 0.1630%
- DVS mass change, desorption ([4]; 60% RH): 0.2490%
- DVS mass change, sorption ([4]; 60% RH): 0.2076%
- DVS mass change, desorption ([4]; 70% RH): 0.3053%
- DVS mass change, sorption ([4]; 70% RH): 0.2722%
- DVS mass change, desorption ([4]; 80% RH): 0.3892%
- DVS mass change, sorption ([4]; 80% RH): 0.3684%
- DVS mass change, desorption ([4]; 90% RH): 0.5376%
- DVS mass change, sorption ([4]; 90% RH): 0.5302%
- DVS mass change, desorption ([4]; 95% RH): 0.7523%
- DVS mass change, sorption ([4]; 95% RH): 0.7523%
- water uptake ([4]; 95% relative humidity, DVS (dynamic vapor sorption) test): 0.75%
- XRPD after 1 day at 92% RH: crystallinity or form [4]: IAG933 1:1 succinate salt (unsolvated)
- XRPD after DVS [4]: No change
Compound: CNC(=O)c1cnc(OCCO)c(F)c1-c1c(Cl)c(F)cc2c1C[C@](c1ccccc1)([C@@H]1CCCN1)O2.O=C(O)CCC(=O)O
- properties compared to IAG933 free form modification A [5]: improved properties with respect to residual solvent content, melting point, hygroscopicity and stability when compared to IAG933 free form modification A
